Test results from US8846948B2, “Compounds” (Boehringer Ingelheim International GmbH, priority 2011, dated 2014).

Protein sequences, listed by entry. Tags and fused reporters are not part of them. Residues count along the entry.
UniProt P41594, 21-1212 limits assumed: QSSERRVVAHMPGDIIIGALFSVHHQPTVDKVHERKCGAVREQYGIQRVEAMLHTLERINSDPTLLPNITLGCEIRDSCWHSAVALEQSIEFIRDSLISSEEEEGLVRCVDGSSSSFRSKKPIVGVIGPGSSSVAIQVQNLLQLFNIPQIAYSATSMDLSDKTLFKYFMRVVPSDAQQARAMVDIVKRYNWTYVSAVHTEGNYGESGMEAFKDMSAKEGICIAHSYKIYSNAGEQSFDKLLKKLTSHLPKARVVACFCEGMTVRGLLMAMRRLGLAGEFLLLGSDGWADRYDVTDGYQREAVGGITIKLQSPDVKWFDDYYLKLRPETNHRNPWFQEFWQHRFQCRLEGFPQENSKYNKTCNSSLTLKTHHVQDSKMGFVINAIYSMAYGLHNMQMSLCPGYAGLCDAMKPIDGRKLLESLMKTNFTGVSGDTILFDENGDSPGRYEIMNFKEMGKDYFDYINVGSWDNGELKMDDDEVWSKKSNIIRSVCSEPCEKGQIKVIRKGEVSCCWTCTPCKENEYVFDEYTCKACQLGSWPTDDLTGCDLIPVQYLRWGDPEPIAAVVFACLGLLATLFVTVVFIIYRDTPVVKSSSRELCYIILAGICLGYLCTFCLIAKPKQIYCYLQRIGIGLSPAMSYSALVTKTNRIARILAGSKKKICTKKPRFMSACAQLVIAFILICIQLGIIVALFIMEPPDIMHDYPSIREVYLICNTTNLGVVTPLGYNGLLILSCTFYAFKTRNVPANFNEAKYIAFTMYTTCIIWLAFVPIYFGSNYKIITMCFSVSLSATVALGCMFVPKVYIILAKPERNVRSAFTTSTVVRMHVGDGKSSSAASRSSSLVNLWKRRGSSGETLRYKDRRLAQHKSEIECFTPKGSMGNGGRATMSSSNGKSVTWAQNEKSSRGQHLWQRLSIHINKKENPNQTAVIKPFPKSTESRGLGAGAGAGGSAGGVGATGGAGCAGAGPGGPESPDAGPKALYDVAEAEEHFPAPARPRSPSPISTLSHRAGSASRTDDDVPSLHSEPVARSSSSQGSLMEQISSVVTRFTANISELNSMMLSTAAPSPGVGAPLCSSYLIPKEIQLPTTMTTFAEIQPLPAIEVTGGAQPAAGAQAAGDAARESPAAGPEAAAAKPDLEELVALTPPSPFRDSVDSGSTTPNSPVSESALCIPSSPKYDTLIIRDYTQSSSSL

Biological target: human recombinant mGluR5 (Homo sapiens, UniProt P41594)
Assay: Positive modulation of mGluR5, calcium based FLIPR assay
Conditions: EC50 of the modulation; HEK 293 cell line expressing human recombinant mGluR5; peak height of Ca release fluorescence signal after glutamate at approximately 5% basal stimulation
Experimental: The positive modulation of mGluR5 is measured in a HEK 293 cell line expressing human recombinant mGluR5 and is detected with calcium based FLIPR assay. The cells are cultured with DMEM supplemented with 10% FCS, 2 μg/mL tetracycline, 100 μg/mL hygromycin and 500 μg/mL gneticin. The cell culture media is exchanged for tetracycline-free cell culture media 3-7 days before the assay. One day before the assay the cell culture medium is exchanged to DMEM without glutamine and phenol red and supplemented with 10% FCS, 100 μg/mL hygromycin and 500 μg/mL geneticin. On the assay day, the medium of the subconfluent cultures is removed and the cells are detached by addition of 2.5 ml EDTA (0.02%) per 175 cm2 culture flask for 1 minute. […]
20 μl of each compound solution are then transferred to the assay plate and the Ca2+ kinetic is measured to determine any intrinsic compound activity. After 5 mM incubation in the FLIPR device, the second stimulation with 20 μl of glutamate in Ringer solution (glutamate concentration adjusted to approximately 5% basal stimulation of the maximal possible glutamate effect) is added and the kinetic Ca2+ response of the wells was measured for the modulation effect.
The peak height of the Ca release related fluorescence signal (9-66) is used for the EC50. The EC50 of the modulation is calculated over a nonlinear regression with GraphPad Prism (Table 1).

`O=C(Cn1cc(-c2ccccc2)nc1-c1ccc(F)cc1)N1CCN(c2ccccn2)CC1` was tested, and the EC50 was 851 nM.
